# Test results published in US20240059695A1, “SUBSTITUTED IMIDAZO[1,5-b]PYRIDAZINE COMPOUNDS AS KINASE INHIBITORS AND USE THEREOF” (IMPACT THERAPEUTICS (SHANGHAI), INC, priority 2020, published 2024).
# What was measured:
# [1] = system: human lung cancer NCI-H460 cell; experiment: MTT proliferation assay, NCI-H460; type: cell-based; details: NCI-H460, 96 h, read-out: IC50 (nM), proliferation of NCI-H460 cell
# Description: The cells were digested by trypsinase and centrifuged at 800 rpm for 5 minutes, the supernatant was discarded, and the residual was resuspended with fresh medium […]) and counted.
# (§1) The cells were seeded into 96-well cell culture plate with a density of 2000/4000 cells per well and incubated overnight in a 5% CO2 incubator at 37° C. […] 5 μL diluent of each concentration was added to 120 μL of medium (25 times diluted) and mixed by shaking. The overnight cell plates were taken and the culture medium was removed, 195 μL of fresh medium was added to each well, and 5 μL of diluted medium containing the corresponding concentration of the test compound was added respectively (the final concentration of DMSO is 1%), and the culture plate was then placed in a 5% CO2 incubator at 37° C. for 4 days. After removing the original solution, 100 μL of fresh serum-free DMEM medium containing MTT (0.5 mg/mL) was added to each well, the culture was continued. […] Cell viability (%)=(ODcompound−ODbackground)/(ODDMSO−ODbackground)×100. GraphPad Prism 6.0 was used to analyze the data. The inhibitory activity of compounds on cell proliferation was plotted based on cell viability and the logarithm of compound concentration. The IC50 value was fitted by a sigmoidal dose response curve equation Y−100/(1+10^(LogC−LogIC50)), wherein C was the concentration of compound.
# [2] = system: human colon cancer LoVo cell; experiment: MTT proliferation assay, LoVo; type: cell-based; details: 96 h, read-out: IC50 (nM), proliferation of LoVo cell
# Description: as §1, with “[…]” for “100 μL”, “viability (%)=(ODcompound−ODbackground)/ODDMSO−ODbackground)×100.” for “viability (%)=(ODcompound−ODbackground)/(ODDMSO−ODbackground)×100.”, “The IC5.0” for “The IC50”, “equation Y=100/(1+10^(LogC-LogIC50)),” for “equation Y−100/(1+10^(LogC−LogIC50)),”
smiles,measurement,setting,value
"C[C@@H]1COCCN1c1cc(-c2ccnn2C)c2ccnc(-c3ccn[nH]3)c2n1 [BAY-1895344, reference compound]",IC50,[1],22 nM
same,IC50,[2],27.1 nM
